Consider nine compounds from BindingDB's records for 3965704.

By UniProt entry, the sequences of proteins in these tests, tags left out. Residues count along the entry.
UniProt P37136, 32-614 limits assumed: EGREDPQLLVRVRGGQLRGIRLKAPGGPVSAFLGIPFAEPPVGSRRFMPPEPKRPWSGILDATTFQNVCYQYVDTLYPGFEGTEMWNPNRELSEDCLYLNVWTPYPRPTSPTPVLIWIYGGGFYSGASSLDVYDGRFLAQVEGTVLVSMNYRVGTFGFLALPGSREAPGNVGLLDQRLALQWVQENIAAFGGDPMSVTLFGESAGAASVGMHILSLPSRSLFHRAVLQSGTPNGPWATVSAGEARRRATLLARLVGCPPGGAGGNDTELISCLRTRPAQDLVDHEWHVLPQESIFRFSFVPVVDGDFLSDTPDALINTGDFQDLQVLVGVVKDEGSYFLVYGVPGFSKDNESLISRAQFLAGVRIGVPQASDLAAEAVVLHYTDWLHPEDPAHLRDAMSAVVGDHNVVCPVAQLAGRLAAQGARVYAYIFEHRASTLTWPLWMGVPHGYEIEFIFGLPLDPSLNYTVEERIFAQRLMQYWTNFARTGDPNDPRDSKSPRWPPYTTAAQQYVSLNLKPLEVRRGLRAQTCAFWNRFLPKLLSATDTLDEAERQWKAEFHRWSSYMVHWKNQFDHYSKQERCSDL

For test [1], the target named is T1, Acetylcholinesterase (Rattus norvegicus, UniProt P37136). Briefly: ASSAY_NAME: ChEMBL_29075 (CHEMBL642842) DESCRIPTION: Effect on Acetylcholinesterase activity in rat brain homogenates.
The target in test [2] is T1, Acetylcholinesterase. Description: ASSAY_NAME: ChEMBL_29076 (CHEMBL642843) DESCRIPTION: Effect on Acetylcholinesterase activity in rat erythrocytes.

Some results are limits rather than exact numbers.

By IC50 is commonly meant the concentration that gives 50% inhibition. Low readings indicate higher potency, high ones lower potency. `C[n+]1ccccc1CCN1C(=O)CCC1=O`: the values for the concentration for half-maximal inhibition (IC50) in test [1] and in test [2] were 470 µM and 870 µM, respectively.
Regarding `CC[N+](C)(CC)CCc1ccccn1`, the IC50 in test [1] and in test [2] was more than 1000 µM each time.
Consider `CC1C=CN(C)c2c1c1c(n2C)CCC1OCCCl` (stereo not drawn), for which the half-maximal inhibitory concentration (IC50) in test [1] amounted to 380 µM; in test [2] it was 250 µM.
`C[n+]1ccc(CCN2C(=O)CCC2=O)cc1`: the half-inhibitory concentration (IC50) in test [1] stood at 890 µM; in test [2] it was 830 µM.
The matching figures for `CCN(CC)CCc1cccc[n+]1C`: 500 µM and 550 µM.
For `C[n+]1ccccc1CCl`, the IC50 in test [1] came to 340 µM; in test [2], 460 µM.
As to `C[n+]1ccccc1CCC(O)CCl` (stereo not drawn), the half-maximal inhibitory concentration (IC50) in test [1] and in test [2] was 200 µM each time.
As for `C[N+](C)(C)CCCCl`, the IC50 in test [1] and in test [2] was 260 µM throughout.
`CC[N+](C)(CC)CCc1ccncc1`: the IC50 in test [1] and in test [2] was 200 µM each time.
